Protein sequences, listed by entry. Tags and fused reporters are not part of them.
UniProt Q12884, whole entry: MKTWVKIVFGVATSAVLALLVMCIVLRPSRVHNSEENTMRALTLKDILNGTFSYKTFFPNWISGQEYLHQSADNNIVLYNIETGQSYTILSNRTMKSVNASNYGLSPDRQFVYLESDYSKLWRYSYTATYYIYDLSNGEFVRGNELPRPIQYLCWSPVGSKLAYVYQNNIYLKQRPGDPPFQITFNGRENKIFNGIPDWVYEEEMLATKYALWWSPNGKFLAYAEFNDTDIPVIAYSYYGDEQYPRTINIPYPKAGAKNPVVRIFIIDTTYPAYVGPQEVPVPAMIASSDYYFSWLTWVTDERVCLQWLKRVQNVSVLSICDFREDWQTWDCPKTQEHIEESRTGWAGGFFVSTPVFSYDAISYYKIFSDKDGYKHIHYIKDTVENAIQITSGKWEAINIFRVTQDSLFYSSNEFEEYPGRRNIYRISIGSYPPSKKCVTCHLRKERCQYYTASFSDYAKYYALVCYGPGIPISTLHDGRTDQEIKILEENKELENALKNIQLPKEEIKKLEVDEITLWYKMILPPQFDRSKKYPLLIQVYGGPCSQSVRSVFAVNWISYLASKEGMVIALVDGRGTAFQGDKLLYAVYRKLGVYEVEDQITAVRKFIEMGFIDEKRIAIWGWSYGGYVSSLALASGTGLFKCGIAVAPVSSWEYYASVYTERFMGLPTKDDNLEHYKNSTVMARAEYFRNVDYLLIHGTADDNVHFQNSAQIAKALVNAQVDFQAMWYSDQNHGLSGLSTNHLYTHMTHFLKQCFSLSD
UniProt P48147, whole entry: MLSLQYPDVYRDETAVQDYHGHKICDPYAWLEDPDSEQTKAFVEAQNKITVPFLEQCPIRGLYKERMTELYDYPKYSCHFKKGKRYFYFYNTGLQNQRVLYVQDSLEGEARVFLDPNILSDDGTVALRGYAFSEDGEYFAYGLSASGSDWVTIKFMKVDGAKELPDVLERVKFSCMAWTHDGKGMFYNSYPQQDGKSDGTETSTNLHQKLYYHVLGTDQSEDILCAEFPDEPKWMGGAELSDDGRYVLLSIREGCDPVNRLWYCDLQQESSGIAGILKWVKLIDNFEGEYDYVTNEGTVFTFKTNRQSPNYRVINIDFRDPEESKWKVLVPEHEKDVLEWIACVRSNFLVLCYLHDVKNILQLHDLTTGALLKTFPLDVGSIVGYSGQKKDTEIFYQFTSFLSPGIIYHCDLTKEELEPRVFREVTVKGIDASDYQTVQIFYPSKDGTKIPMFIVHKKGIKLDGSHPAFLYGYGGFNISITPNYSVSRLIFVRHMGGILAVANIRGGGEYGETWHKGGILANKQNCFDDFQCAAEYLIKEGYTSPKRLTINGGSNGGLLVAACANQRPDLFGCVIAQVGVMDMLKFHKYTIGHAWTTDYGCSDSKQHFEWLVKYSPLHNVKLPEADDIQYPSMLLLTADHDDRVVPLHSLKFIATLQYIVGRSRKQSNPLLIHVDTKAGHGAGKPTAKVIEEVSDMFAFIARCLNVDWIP
UniProt P27487, whole entry: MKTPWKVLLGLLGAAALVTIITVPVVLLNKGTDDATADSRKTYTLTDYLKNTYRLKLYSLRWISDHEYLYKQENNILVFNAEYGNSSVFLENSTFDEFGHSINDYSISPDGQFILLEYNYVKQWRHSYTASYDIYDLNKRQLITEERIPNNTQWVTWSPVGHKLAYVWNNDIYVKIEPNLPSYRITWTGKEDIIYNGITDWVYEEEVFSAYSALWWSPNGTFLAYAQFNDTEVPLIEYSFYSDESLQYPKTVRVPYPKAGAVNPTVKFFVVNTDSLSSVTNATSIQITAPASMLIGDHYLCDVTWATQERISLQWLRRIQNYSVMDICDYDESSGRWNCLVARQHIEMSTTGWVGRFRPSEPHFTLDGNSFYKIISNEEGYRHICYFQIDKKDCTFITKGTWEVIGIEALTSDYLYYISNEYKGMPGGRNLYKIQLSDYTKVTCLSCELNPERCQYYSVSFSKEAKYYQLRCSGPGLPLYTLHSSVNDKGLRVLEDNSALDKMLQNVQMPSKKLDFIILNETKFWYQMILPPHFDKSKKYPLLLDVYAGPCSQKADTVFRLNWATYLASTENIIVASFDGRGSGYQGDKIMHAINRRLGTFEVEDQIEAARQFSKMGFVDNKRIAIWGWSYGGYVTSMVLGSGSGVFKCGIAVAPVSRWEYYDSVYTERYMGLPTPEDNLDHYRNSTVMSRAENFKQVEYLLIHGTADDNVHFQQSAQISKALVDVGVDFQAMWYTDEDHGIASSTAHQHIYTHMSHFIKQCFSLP

According to patent EP4847498A1, “PRODRUG COMPOUND ACTIVATED BY FIBROBLAST ACTIVATION PROTEIN” (dated 2026):

How the values were obtained:
FAP = FAP (Homo sapiens, UniProt Q12884); test: Cleavage of AMC-conjugated FAP substrate by FAP (fluorescence intensity over incubation time); conditions: 2.5 µM substrate, 2.5 µg/mL FAP, Tris-HCl buffer pH 7.4, 37°C
Experimental: (§1) To evaluate whether the FAP substrate according to the present invention is specifically recognized and cleaved only by FAP, the following experiment was conducted. 2.5 µM of an AMC-conjugated isonicotinoyl-D-Ala-Pro moiety represented by Formula 9 below as a substrate, 2.5 µg/mL of FAP, and <1% (v/v) of DMSO were added and incubated in buffer (0.01 M Tris-HCl, pH 7.4, 0.01 M MgCl2, 0.05% Tween-20, distilled water) at 37°C. As controls, PREP and DPP4, which are peptidases similar to FAP, were added. Fluorescence intensity as a function of incubation time was measured using a microplate instrument (SYNERGY H1, BioTek), and the results are shown in FIG. 3. [drawing 44]

PREP = PREP (Homo sapiens, UniProt P48147); test: Cleavage of AMC-conjugated FAP substrate by control peptidase PREP (fluorescence); conditions: 2.5 µM substrate, PREP as control, pH 7.4, 37°C
Experimental: as §1

DPP4 = DPP4 (Homo sapiens, UniProt P27487); test: Cleavage of AMC-conjugated FAP substrate by control peptidase DPP4 (fluorescence); conditions: 2.5 µM substrate, DPP4 as control, pH 7.4, 37°C
Experimental: as §1

U87MG cells = test: FAAP activation by intracellular FAP, confocal microscopy of intrinsic nintedanib fluorescence; conditions: normal group with FAP, 10 µM
Experimental: To evaluate whether FAAP is activated by FAP at the cellular level, a normal group with FAP and a group in which FAP was blocked using oncoFAP were treated with each of nintedanib and FAAP, and the uptake pattern was observed using a confocal microscope. Specifically, cells were seeded into confocal dishes at a density of 2 x 10^5 cells/mL per well, incubated for 24 hours, and then subjected to drug treatment. For drug treatment, the normal group with FAP was treated with 2 µL (10 µM) of each of FAAP and nintedanib. The group in which FAP was blocked was first treated with 10 µL (1 mM) of oncoFAP, shaken from side to side, incubated for 30 minutes, and then treated with 2 µL (10 µM) of FAAP. After drug treatment, shaking was performed using a shaker at 165 rpm for 5 minutes. After incubation in an incubator for 15 minutes, 2 hours, 6 hours, and 10 hours, the cells were washed twice with warm DPBS. The cells were incubated with 1 ml of warm 4% PFA for 15 minutes, washed twice, then fixed by filling with DPBS to keep them from drying out, and then confocal images were taken. Nintedanib drug images were obtained using a Hoechst 33258 filter.

Row | cleavage of the substrate by PREP (PREP) | cleavage of the substrate by DPP4 (DPP4) | Compound | cleavage of the substrate by FAP, fluorescence detected (FAP) | time after treatment at which fluorescence started (U87MG cells) [min]
1 | not cleaved | not cleaved | Cc1cc(=O)oc2cc(NC(=O)[C@@H]3CCCN3C(=O)[C@@H](C)NC(=O)c3ccncc3)ccc12 | specifically cleaved only by the FAP enzyme | 
2 |  |  | COC(=O)c1ccc2c(c1)NC(=O)/C2=C(\Nc1ccc(N(C)C(=O)CN2CCN(C)CC2)cc1)c1ccccc1 |  | 15
